Experimental data as given in patent US5132432A, “Chemically reactive pyrenyloxy sulfonic acid dyes” (Molecular Probes, Inc., priority 1989, dated 1992).
Structures can show the parent of a compound that is named as a salt.

Key:
[1] = Spectral properties (absorption/emission) of new pyrenyloxy sulfonic acid dyes, Table 4; type: physicochemical; settings: 50 mM aqueous potassium phosphate buffer at pH 8.0; for Em Max: uncorrected
Method: Stock solutions were prepared by accurately weighing and dissolving 5-10 mg samples of the compounds in 2.000 ml water. A 10 μl aliquot of the stock solution was diluted into 2.00 ml of 50 mM potassium phosphate buffer at pH 8.0. Absorbance solutions were prepared by further diluting 200 μl of the diluted stock solution to 2.000 ml with 50 mM potassium phosphate buffer at pH 8.0. Absorption data was collected on an IBM Model 9420 UV/Visible Spectrophotometer and extinction coefficients were determined by standard Beer's Law calculations.
Uncorrected fluorescence data was obtained on a Perkin-Elmer Model 650-40 Fluorescence Spectrophotometer equipped with a Perkin-Elmer/Hitachi 057 X-Y Recorder using a ten- to twentyfold dilution of the absorbance solutions. Fluorescence of the pyrenyloxy sulfonic acid dyes was determined for the reactive dyes and for their conjugates with model compounds by dissolving the dye at a concentration above 1×10^-8M in an appropriate solvent such as water, methanol, ethanol, or dimethylsulfoxide and measurement of the fluorescence in a suitable instrument, such as a fluorescence spectrometer or fluorescence microscope or flow cytometer. Fluorescence could also be observed for the dyes in solution by visual inspection with illumination by a suitable source that emits light at wavelengths of less than 420 nm.

[2] = Comparison of spectral properties of reactive dyes, Table 1; type: physicochemical
Source text: A number of dyes have been proposed in the literature that can be excited and detected at wavelengths less than 500 nm. Several chemically reactive fluorophores that can be excited in the near ultraviolet and short wavelength visible region of the spectrum have been described. […] These proposed tracers are derived from naphthalene derivatives such as 5-dimethylaminonaphthalene-1-sulfonic acid (Dansyl) [Weber, Biochem. J. 41:145 (1952); Rinderknecht, Experientin 16:430 (1960)], 3-(isothiocyanato)naphthalene-1,5-disulfonic acid [Braunitzer, et al., Hoppe-Seyler's Z. Physiol. […] Chem. 358:505 (1977)], pyrene derivatives such as pyrene-1-butyric acid (PBA) [Malencik & Anderson, Biochemistry 11:3022 (1972)], 8-isothiocyanatopyrene-1,3,6-trisulfonic acid (IPTS) [Braunitzer,et al., Hoppe-Seyler's Z. Physiol. Chem. 354:1536 (1973)] and 8-hydroxypyrene-1,3,6-trisulfonyl chloride [Wolfbeis, Fresenies Z. Anal. Chem. 320:271 (1985)], stilbene derivatives such as 4-acetamido-4'-isothiocyanatostilbene-2,2'-disulfonic acid (SITS) [Cornelisse & Ploem, J. Histochem. Cytochem. 24:72 (1976)], and coumarin dyes such as 3-carboxy-7-hydroxycoumarin [Baker & Collis, J. Chem. Soc. 1949, S 12 (1949)], 7-hydroxy-4-methylumbelliferone-3-acetic acid (4-MUA) [Khalfan, et al., Biochem. J. 209:265 (1983)], 7-amino-4-methylcoumarin-3-acetic acid (AMCA) [Khalfan, et al., Histochem. […]

[3] = second (shorter-wavelength) maximum

Row | Compound | Abs Max [1, 3] [nm] | Em Max [1] [nm] | further results
1 | CC(C)(C)OC(=O)N1CCC[C@H]1C(=O)NCCNC(=O)COc1cc(S(=O)(=O)[O-])c2ccc3c(S(=O)(=O)[O-])cc(S(=O)(=O)[O-])c4ccc1c2c43.[Na+].[Na+].[Na+] [Compound 14, N-(1,3,6-Trisulfo-8-pyrenyloxyacetyl)-N'-(N-t-butoxycarbonyl-L-prolyl)-1,2-ethanediamine, trisodium salt] | 378 |  | 
2 | NCCNC(=O)COc1cc(S(=O)(=O)O)c2ccc3c(S(=O)(=O)O)cc(S(=O)(=O)O)c4ccc1c2c43 [Compound 3, 1,3,6-Trisulfo-8-pyrenyloxyacetamido-1-(2-aminoethane), trisodium salt] | 378 | 423 | 
3 | O=C(COc1cc(S(=O)(=O)O)c2ccc3c(S(=O)(=O)O)cc(S(=O)(=O)O)c4ccc1c2c43)NCCO [Compound 10] |  | 423 | 
4 | 1,3,6-Trisulfo-8-pyrenyloxyacetamido-dextranamine [Compound 5] | 378 | 423 | Emission Band-width [1]: 50 nm; Emission at 514 nm [1]: 4.5 % of max; Abs Max ([1]; first (longer-wavelength) maximum): 400 nm
5 | [N-]=[N+]=Nc1ccc(C(=O)NCCCCCNC(=O)COc2cc(S(=O)(=O)[O-])c3ccc4c(S(=O)(=O)[O-])cc(S(=O)(=O)[O-])c5ccc2c3c54)cc1.[Na+].[Na+].[Na+] [Compound 20, N-(1,3,6-Trisulfo-8-pyrenyloxyacetyl)-N'-(4-azidobenzoyl)-1,5-pentanediamine, trisodium salt] | 378 |  | 
6 | NNC(=O)COc1cc(S(=O)(=O)O)c2ccc3c(S(=O)(=O)O)cc(S(=O)(=O)O)c4ccc1c2c43 [Compound 11, 1,3,6-Trisulfo-8-pyrenyloxyacethydrazide, free sulfonic acid] |  | 423 | 
7 | NNC(=O)COc1cc(S(=O)(=O)[O-])c2ccc3c(S(=O)(=O)[O-])cc(S(=O)(=O)[O-])c4ccc1c2c43.[Na+].[Na+].[Na+] [Compound 12, 1,3,6-Trisulfo-8-pyrenyloxyacethydrazide, trisodium salt] |  | 423 | Em. Max. [2]: 423 nm
8 | C=CC(=O)NCCCCCNC(=O)COc1cc(S(=O)(=O)O)c2ccc3c(S(=O)(=O)O)cc(S(=O)(=O)O)c4ccc1c2c43 [Compound 19] | 378 | 423 | 
9 | N#CCCCCCNC(=O)COc1cc(S(=O)(=O)O)c2ccc3c(S(=O)(=O)O)cc(S(=O)(=O)O)c4ccc1c2c43 [Compound 16] |  | 423 | 
10 | CC(C)(C)OC(=O)N1CCC[C@H]1C(=O)NCCCCCNC(=O)COc1cc(S(=O)(=O)O)c2ccc3c(S(=O)(=O)O)cc(S(=O)(=O)O)c4ccc1c2c43 [Compound 15] |  | 423 | 
11 | N.N.N.NNC(=O)COc1cc(S(=O)(=O)O)c2ccc3c(S(=O)(=O)O)cc(S(=O)(=O)O)c4ccc1c2c43 [Compound 13, 1,3,6-Trisulfo-8-pyrenyloxyacethydrazide, triammonium salt] |  | 423 | 
